Measured values taken from publication PMC5358098 (ACS chemical neuroscience, 2016).

Sequences of proteins named here, by UniProt entry; tags and fusion partners are left off.
UniProt P21554, whole entry: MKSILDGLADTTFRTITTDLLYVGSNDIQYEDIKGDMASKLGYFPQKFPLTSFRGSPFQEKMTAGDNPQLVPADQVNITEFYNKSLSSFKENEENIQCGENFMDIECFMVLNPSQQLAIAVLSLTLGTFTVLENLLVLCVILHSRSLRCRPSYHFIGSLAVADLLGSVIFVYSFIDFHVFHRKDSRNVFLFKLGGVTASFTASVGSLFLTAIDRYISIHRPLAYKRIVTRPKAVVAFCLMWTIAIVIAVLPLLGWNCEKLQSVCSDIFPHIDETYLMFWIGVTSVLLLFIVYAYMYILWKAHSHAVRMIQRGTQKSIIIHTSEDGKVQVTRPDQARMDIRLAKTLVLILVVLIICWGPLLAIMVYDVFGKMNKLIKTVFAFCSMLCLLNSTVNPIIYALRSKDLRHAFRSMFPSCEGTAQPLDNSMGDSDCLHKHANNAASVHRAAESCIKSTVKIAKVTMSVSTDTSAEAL

What was measured:
Experiment in all cases: cell-based
[1] = molecular target: T1, CB1R (Homo sapiens, UniProt P21554)
[2] = molecular target: T1, CB1R; remark: listed apart in the source
[3] = molecular target: T1, CB1R; remark: listed apart in the source
[4] = molecular target: T1, CB1R; conditions: IC50, PLCβ3 phosphorylation
[5] = molecular target: T1, CB1R; assay type: cell-based
[6] = molecular target: T1, CB1R; assay type: cell-based; remark: listed apart in the source
[7] = IC50, BRETEff β-arrestin1-Rluc/CB1-GFP2, 2-AG
[8] = IC50, BRETEff β-arrestin1-Rluc/CB1-GFP2, AEA
[9] = IC50, BRETEff β-arrestin1-Rluc/CB1-GFP2, CP55,940

For `O=C(Nc1ccc(Cl)cc1)Nc1cccc(-c2cccc(N3CCCC3)n2)c1` [PSNCBAM-1, 1-(4-chlorophenyl)-3-(3-(6-(pyrrolidin-1-yl)pyridine-2-yl)phenyl)urea], the “Emax (BRETEff), 2-AG” value [1] was 0.64 ± 0.06, the “Emax (BRETEff), AEA” value [1] was 0.50 ± 0.04 and the “Emax (BRETEff), CP55,940” value [1] was 0.81 ± 0.10. It also gave an IC50 [1, 7] of 162 nM, an IC50 [1, 8] of 263 nM and an IC50 [1, 9] of 209 nM. The “Emax (BRETEff), 2-AG” value [2] was 0.63 ± 0.03, the “Emax (BRETEff), AEA” value [2] was 0.45 ± 0.03 and the “Emax (BRETEff), CP55,940” value [2] was 0.75 ± 0.08. It also gave an IC50 [2, 7] of 74.1 nM, an IC50 [2, 8] of 355 nM and an IC50 [2, 9] of 316 nM. The “Emax (BRETEff), 2-AG” value [3] was 0.68 ± 0.03, the “Emax (BRETEff), AEA” value [3] was 0.47 ± 0.02 and the “Emax (BRETEff), CP55,940” value [3] was 0.71 ± 0.02. The IC50 [3, 7] was 355 nM, the IC50 [3, 8] was 510 nM and the IC50 ([4]; 2-AG) was 166 nM. For the same compound, the IC50 ([4]; AEA) was 95.5 nM, the “Emax, cAMP (pathway ligand bias summary)” value [5] was 0.42 ± 0.03 ^† and the “effect on cAMP levels in the absence of orthosteric agonists (inverse agonism)” value [5] was “increased cAMP levels significantly”. The IC50 ([5]; IC50, cAMP (pathway ligand bias summary)) was 936 nM, the IC50 ([5]; IC50, cAMP, 2-AG) was 978 nM and the IC50 ([5]; IC50, cAMP, AEA) was 870 nM. The IC50 ([5]; IC50, cAMP, CP55,940) was 962 nM, the Emax ([5]; read-out: Emax (% cAMP inhibition), 2-AG) was 40 ± 2.13% and the Emax ([5]; read-out: Emax (% cAMP inhibition), AEA) was 40.7 ± 2.45%. For the same compound, the Emax ([5]; read-out: Emax (% cAMP inhibition), CP55,940) was 45.7 ± 3.93%, the “Emax, β-arrestin1 (pathway ligand bias summary)” value [6] was 0.63 ± 0.04 and the IC50 [6] was 293 nM. The “inverse agonism toward β-arrestin1 recruitment” value [6] was “neither GAT100, Org27569, nor PSNCBAM-1 (1 nM to 10 μM) evidenced inverse agonism”.

Like-named read-outs stand apart in the source and are kept apart here.
